Measured values: ChEMBL document CHEMBL2202969, “Discovery and evolution of phenoxypiperidine hydroxyamide dual CCR3/H₁ antagonists. Part I” (Bioorg Med Chem Lett, 2012)

molecular target: C-C chemokine receptor type 3 (Homo sapiens) (UniProt P51677); experiment: Displacement of radioligand from human CCR3 expressed in recombinant CHOK1 cells at 1 uM after 1 hr; details: CHO-K1

inhibition, > 70%:
O=C(NC[C@@H](O)CN1CCC(Oc2ccc(Cl)c(Cl)c2)CC1)c1n[nH]c(=O)c2ccccc12, O=C(NC[C@@H](O)CN1CCC(Oc2ccc(Cl)c(Cl)c2)CC1)c1c[nH]c2ccccc12, CS(=O)(=O)c1ccccc1C(=O)NCC(O)CNC1CCN(Cc2ccc(Cl)c(Cl)c2)CC1 (stereo not given), N#Cc1cccc(OC[C@@H](O)CN2CCC(Oc3ccc(Cl)c(Cl)c3)CC2)c1, N#Cc1cccc(OCCCN2CCC(Oc3ccc(Cl)c(Cl)c3)CC2)c1
